Patent US9145391B2, “Bipyridylaminopyridines as Syk inhibitors” (Merck Sharp & Dohme Corp., priority 2011, dated 2015)

Biological target: recombinant human GST-Syk (Homo sapiens (Human), UniProt P43405)
Experiment: Homogeneous Time-Resolved Fluorescence (HTRF) assay for the recombinant human Syk enzyme
Assay type: biochemical
Conditions: recombinant human GST-Syk 5 pM, ATP 25 μM, read-out: rhSyk IC50
Method: Syk inhibition may be determined using the following assay protocol: Homogeneous Time-Resolved Fluorescence (HTRF) Assay for the Recombinant Human Syk Enzyme: A recombinant GST-hSyk fusion protein was used to measure potency of compounds to inhibit human Syk activity. […] To initiate the reaction the biotinylated substrate peptide (250 nM final concentration) that contains the phosphorylation site for Syk was added with magnesium (5 mM final concentration) and ATP (25 μM final concentration). […] Final volume of the quenching solution was 10 μL.

IC50: 71 nM
SMILES: Cc1cc(Nc2cc(C(F)F)ccn2)nc(-c2ccc(C(C)(O)[C@H]3CC[C@H](C(=O)OCOC(=O)C(C)(C)C)CC3)nc2)c1 (single isomer, unassigned) [Example 21-1, [(2,2-dimethylpropanoyl)oxy]methyl trans-4-[(1R or 1S)-1-(6-{[4-(difluoromethyl)pyridin-2-yl]amino}-4-methyl-2,3′-bipyridin-6′-yl)-1-hydroxyethyl] cyclohexanecarboxylate]
